Consider one compound from BigSolDB 2.1.

For the series the following is noted: in water, 298 K.

For orientation: solubility (mole fraction) means solubility expressed as the solute's share of all molecules. `O=S(=O)(Nc1cccnc1Cl)c1ccccc1` gave a solubility (mole fraction) of 3.12e-06.
